Patent US5032577A, “Peptidylaminodiols” (Abbott Laboratories, priority 1987, dated 1991)
Like-named read-outs stand apart in the source and are kept apart here.

Sequences of proteins named here, by UniProt entry; tags and fusion partners are left off. Residues count along the entry.
UniProt P00797, 67-406: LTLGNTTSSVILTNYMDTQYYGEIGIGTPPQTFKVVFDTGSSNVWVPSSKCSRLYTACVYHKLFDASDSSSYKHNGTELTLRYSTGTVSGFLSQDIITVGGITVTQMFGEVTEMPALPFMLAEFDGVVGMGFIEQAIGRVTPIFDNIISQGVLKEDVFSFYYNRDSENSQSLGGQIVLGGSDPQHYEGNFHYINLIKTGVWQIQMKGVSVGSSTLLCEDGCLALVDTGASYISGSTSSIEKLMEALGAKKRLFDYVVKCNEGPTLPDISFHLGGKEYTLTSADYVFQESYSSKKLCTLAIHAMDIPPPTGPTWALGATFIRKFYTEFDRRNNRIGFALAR

Molecular target: T1, human renal renin (Homo sapiens, UniProt P00797)
T1 construct: human renal renin, free from acid proteolytic activity; from tissue
Experiment: Inhibition of human renal renin in vitro; angiotensin I formed measured by radioimmunoassay
Type: biochemical

For `CC(C)C[C@H](O)[C@H](O)[C@H](CC1CCCCC1)NC(=O)[C@H](Cc1c[nH]cn1)NC(=O)[C@@H](Cc1ccccc1)NC(=O)N1CCOCC1` [Example 174], which IC50 is on record?
Its IC50 is 12 nM.

Which IC50 (human renal renin free from acid proteolytic activity, renin substrate human angiotensinogen, 37° C., pH 6.0) does the source give for `CC(=O)N[C@@H](Cc1ccccc1)C(=O)N[C@@H](Cc1c[nH]cn1)C(=O)N[C@@H](CC1CCCCC1)[C@@H](O)[C@@H](O)CC(C)C` [Example 30, Ac-Phe-His Amide of 2(S)-Amino-1-cyclohexyl-3(R),4(S)-dihydroxy-6-methylheptane] here?
The IC50 was 0.75 nM.
